Experimental data: patent publication US20080131419A1

Target: actin filaments (F-actin) of lily pollen tubes (lily (Lilium grandiflorum / Lilium longiflorum cv. Osnat))
Experiment: cell-based or functional assay

- inhibition of lily pollen tube growth, 1 uM RNase B1, relative to control: 36.5%
Substance: Aspergillus niger B1 extracellular RNase (RNase B1) (from UniProt P19791 1-238) (enzyme)
